Test results published in patent publication US20240254082A1, “Substituted Isoindoline-1, 3-diketone PDE4 Inhibitor and Pharmaceutical Application Thereof” (SUZHOU INTRAGRAND PHARMA CO., LTD, priority 2021, published 2024).

Chains of the proteins cited; added tags and fusions are not shown. Lines headed by an entry give the natural chain unless they say otherwise; changes in a name come on top. Residues count along the entry.
UniProt P27815, 1-647 isoform P27815-4: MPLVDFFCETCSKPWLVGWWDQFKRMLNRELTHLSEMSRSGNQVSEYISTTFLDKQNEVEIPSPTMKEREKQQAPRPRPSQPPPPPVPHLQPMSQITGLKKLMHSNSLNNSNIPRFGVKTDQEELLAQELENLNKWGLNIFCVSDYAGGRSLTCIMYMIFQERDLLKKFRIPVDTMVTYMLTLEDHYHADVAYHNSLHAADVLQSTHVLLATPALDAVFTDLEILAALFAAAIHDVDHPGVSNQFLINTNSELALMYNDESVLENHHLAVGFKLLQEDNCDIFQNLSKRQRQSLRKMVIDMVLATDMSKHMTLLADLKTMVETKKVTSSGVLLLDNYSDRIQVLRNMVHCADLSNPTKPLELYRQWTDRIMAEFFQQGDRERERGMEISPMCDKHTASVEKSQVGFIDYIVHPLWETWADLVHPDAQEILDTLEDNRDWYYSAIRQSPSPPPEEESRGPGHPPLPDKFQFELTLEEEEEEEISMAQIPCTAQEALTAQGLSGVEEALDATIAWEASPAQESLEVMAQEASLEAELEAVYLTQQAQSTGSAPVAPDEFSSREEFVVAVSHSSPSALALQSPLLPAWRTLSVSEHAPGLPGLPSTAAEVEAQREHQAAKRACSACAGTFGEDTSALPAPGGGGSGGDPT
UniProt Q08493: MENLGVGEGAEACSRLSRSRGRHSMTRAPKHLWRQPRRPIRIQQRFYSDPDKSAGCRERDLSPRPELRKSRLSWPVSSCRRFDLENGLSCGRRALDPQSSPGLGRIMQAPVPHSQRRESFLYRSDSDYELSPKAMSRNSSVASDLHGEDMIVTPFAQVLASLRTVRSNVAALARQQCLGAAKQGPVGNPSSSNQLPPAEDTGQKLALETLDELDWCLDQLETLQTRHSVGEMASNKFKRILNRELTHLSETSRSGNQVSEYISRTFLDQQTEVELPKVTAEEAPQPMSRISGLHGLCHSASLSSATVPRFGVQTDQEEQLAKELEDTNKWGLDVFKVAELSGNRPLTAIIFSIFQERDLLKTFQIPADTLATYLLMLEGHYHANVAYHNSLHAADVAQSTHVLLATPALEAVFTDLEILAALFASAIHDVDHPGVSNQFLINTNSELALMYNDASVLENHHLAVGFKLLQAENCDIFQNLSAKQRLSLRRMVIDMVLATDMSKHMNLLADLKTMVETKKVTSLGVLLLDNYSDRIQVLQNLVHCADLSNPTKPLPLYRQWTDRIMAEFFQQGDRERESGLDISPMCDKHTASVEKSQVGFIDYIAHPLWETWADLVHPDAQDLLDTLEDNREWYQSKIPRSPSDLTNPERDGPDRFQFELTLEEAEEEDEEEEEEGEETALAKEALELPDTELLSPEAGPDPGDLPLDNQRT

Columns and labels:
PDE4A1 = target: T1, PDE4A1 (Homo sapiens, UniProt P27815); experiment: Inhibition assay of PDE4A1 enzyme (FP kit); assay type: biochemical
T1 construct: purchased BPS 60340
Experimental: 3. Inhibition assay of PDE4A1 enzyme:
(§1) Materials and Instruments:
FAM substrate: 25 μL of a FAM substrate stock solution was added into 2500 μL of PDE assay buffer. 25 μL of the diluted substrate was added to each reaction well.
(§2) 5 μL of the compound stock solution was added to 45 μL of DMSO to prepare a 1 mM diluent. 5 μL of the 1 mM diluent was added to 45 μL of PDE assay buffer to prepare a gradient dilution starting point. Then, according to the method of adding 5 μL of the previous concentration solution to 15 μL of PDE assay buffer, gradient dilution was carried out for 9 times to prepare compound working solutions with 10 concentrations. The working solutions were added to compound wells at 5 μL/well.
(§3) PDE4A1: First, a PDE4A1 stock solution was diluted by 100 times to a concentration of 4.9 ng/μL, 1.8 μL of the diluent was added to 2200 μL of PDE assay buffer, and the mixture was added to all compound wells and positive control wells at 20 μL/well. 20 μL of PDE assay buffer was added to substrate control wells.
Binding solution: 95 μL of binding buffer was added into 9.5 mL of binder diluent, and then mixed well. The obtained mixture was added to all wells at 100 μL/well.
(§4) FPsub=Substrate control FP.

PDE4C1 = target: T2, PDE4C1 (Homo sapiens, UniProt Q08493); experiment: Inhibition assay of PDE4C1 enzyme (FP kit); assay type: biochemical
T2 construct: purchased BPS 60384
Experimental: 5. Inhibition assay of PDE4C1 enzyme:
as §1
FAM substrate: 12.5 μL of a FAM substrate stock solution was added into 1250 μL of PDE assay buffer. 12.5 μL of the diluted substrate was added to each reaction well.
as §2, with “at 2.5” for “at 5”
as §3, with “PDE4C1:” for “PDE4A1:”, “PDE4C1” for “PDE4A1”, “3.2” for “4.9”, “13.75” for “1.8”, “1100” for “2200”, “10” for “20”
Binding solution: 50 μL of binder was added into 5 mL of binder diluent, and then mixed well. The obtained mixture was added to all wells at 50 μL/well.
as §4

Q: With `CCOc1cc([C@@H](CS(C)(=O)=O)N2C(=O)c3cccc(NC(C)=O)c3C2=O)ccc1OC` [Example 0, Apremilast, reference compound] as the compound, how does the IC50 (PDE4A1) read?
A: The IC50 was 0.1 to 0.2 µM.

Q: What about the IC50 (PDE4C1) of the same compound?
A: The IC50 was 0.2 to 0.5 µM.
